Key:
[1] = tested on: Human breast cancer cell line MDA-MB-453; assay: Antitumor study (4): subcutaneously transplanted MDA-MB-453 cells in nude mice; conditions: MDA-MB-453 xenograft, ADC (1) 0.5 mg/kg iv Day 0, paclitaxel 15 mg/kg iv Day 0, 7
[2] = tested on: SLFN11 gene; assay: RNA expression analysis of JIMT-1 tumors: SLFN11; type: in vivo, human; conditions: JIMT-1 tumors in nude mice, after drug administration
[3] = tested on: ABCG2 gene; assay: RNA expression analysis of JIMT-1 tumors: ABCG2; type: in vivo, human; conditions: JIMT-1 tumors in nude mice, after drug administration
[4] = tested on: Human lung cancer cell line NCI-H441; assay: Antitumor study (6): subcutaneously transplanted NCI-H441 cells in nude mice; conditions: NCI-H441 xenograft, ADC (1) 10 mg/kg iv Day 0, paclitaxel 15 mg/kg iv Day 0, 7
[5] = tested on: Human gastric cancer cell line SNU-1; assay: Antitumor study (5): subcutaneously transplanted SNU-1 cells in nude mice; conditions: SNU-1 xenograft, ADC (1) 10 mg/kg iv Day 0, paclitaxel 15 mg/kg iv Day 0, 7

**Q.** Which TGI [1] does the source give for “antibody-drug conjugate (1): humanized anti-HER2 antibody (SEQ ID NO: 1 residues 1-449, SEQ ID NO: 2 residues 1-214) conjugated to exatecan-derivative drug-linker via a thioether bond” here?
**A.** 75%

**Q.** What about the “average TPM value of the SLFN11 gene” value [2] of the same substance?
**A.** lower value than that in the tumors of the control group

**Q.** What about the “average TPM value of the ABCG2 gene” value [3] of the same substance?
**A.** higher value than that in the tumors of the control group

**Q.** And the TGI [4]?
**A.** 92%

**Q.** What about the TGI [5] of the same substance?
**A.** 79%
